By UniProt entry, the sequences of proteins in these tests, tags left out.
UniProt P20309, whole entry: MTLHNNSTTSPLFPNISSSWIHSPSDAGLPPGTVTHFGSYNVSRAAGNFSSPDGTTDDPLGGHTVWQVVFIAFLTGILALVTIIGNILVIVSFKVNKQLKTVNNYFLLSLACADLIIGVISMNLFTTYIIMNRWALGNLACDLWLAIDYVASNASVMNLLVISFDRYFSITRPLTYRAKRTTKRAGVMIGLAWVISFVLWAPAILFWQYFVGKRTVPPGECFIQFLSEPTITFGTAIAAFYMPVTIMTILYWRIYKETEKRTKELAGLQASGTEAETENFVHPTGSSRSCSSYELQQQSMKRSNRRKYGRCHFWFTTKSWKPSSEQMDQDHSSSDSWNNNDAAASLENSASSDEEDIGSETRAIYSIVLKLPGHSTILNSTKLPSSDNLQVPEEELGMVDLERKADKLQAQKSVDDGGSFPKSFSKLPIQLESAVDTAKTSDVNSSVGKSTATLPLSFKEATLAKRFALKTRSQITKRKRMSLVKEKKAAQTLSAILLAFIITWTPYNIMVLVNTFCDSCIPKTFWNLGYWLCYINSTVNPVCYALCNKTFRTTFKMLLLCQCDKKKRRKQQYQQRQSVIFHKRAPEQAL

In ChEMBL document CHEMBL5726224, “Aminoester derivatives” (2017):

Molecular target: Muscarinic acetylcholine receptor M3 (Homo sapiens, UniProt P20309)
Assay: The assay is carried out in 96-well polypropylene plates in a volume of 250 μl. […] The final assay concentration of DMSO is 0.5% (v/v). The plates are sealed and incubated for 2 h at room temperature on an orbital shaker (slow speed). Membranes are harvested onto 96-well unifilter GF/C filter plates pre-treated with 0.5% polyethyleneimine (v/v), using a filter manifold, washed four times with 200 μl of assay buffer. The plates are dried before addition of 50 μl of microscint-0, sealed then read in a Trilux Microbeta scintillation counter. IC50 values are determined from competition curves using a non-linear curve fitting program. Ki values are calculated from IC50 values by the Cheng and Prusoff equation.

Structure (SMILES)	IC50 [nM]	Ki [nM]
COc1ccc([C@H](Cc2c(Cl)c[n+]([O-])cc2Cl)OC(=O)c2ccc(CNC(C(=O)OC[C@H]3CCN3C)c3ccccc3)s2)cc1OC (stereo partly drawn)	< 1	
COc1ccc([C@H](Cc2c(Cl)c[n+]([O-])cc2Cl)OC(=O)c2ccc(CNC(C(=O)OCC3CCN(C)CC3)c3ccccc3)s2)cc1OC (stereo partly drawn)		0.7
COc1ccc([C@H](Cc2c(Cl)c[n+]([O-])cc2Cl)OC(=O)c2ccc(CNC(CO)(C(=O)OCC3CCN(C)CC3)c3ccccc3)s2)cc1OC (stereo partly drawn)		0.85
COc1ccc([C@H](Cc2c(Cl)c[n+]([O-])cc2Cl)OC(=O)c2ccc(CNC(C(=O)OC[C@H]3CCCN3C)c3ccccc3)s2)cc1OC (stereo partly drawn)	< 1	
COc1ccc(C(Cc2c(Cl)c[n+]([O-])cc2Cl)OC(=O)c2ccc(CNC(C(=O)OCC3CCN(C)CC3)c3ccccc3)s2)cc1OCC1CC1 (stereo not drawn)	< 1	
COc1ccc([C@H](Cc2c(Cl)c[n+]([O-])cc2Cl)OC(=O)c2ccc(CNC(C(=O)OCC3(F)CCN(C)CC3)c3ccccc3)s2)cc1OC (stereo partly drawn)	< 1	
COc1ccc([C@H](Cc2c(Cl)c[n+]([O-])cc2Cl)OC(=O)c2ccc(CNC(C(=O)OC[C@@H]3CCCN3C)c3ccccc3)s2)cc1OC (stereo partly drawn)	< 1	
COc1ccc([C@H](Cc2c(Cl)c[n+]([O-])cc2Cl)OC(=O)c2ccc(CNC(C(=O)OC[C@@H]3CCN3C)c3ccccc3)s2)cc1OC (stereo partly drawn)	< 1	
